Earlier results as cited in patent publication US9547007B2, “Methods and compositions for in-vivo enzyme capture” (The Trustees of the University of Pennslyvania, priority 2009, dated 2017).

Conditions: at 37° C.; internalization into cells

Nδ13-biotinyl-transportan
time at which the maximal intracellular contraction is reached: about 20 min
